{"sequences": {"note": "The chains behind the UniProt entries cited, without tags or fusion partners.", "UniProt P09471, whole entry": "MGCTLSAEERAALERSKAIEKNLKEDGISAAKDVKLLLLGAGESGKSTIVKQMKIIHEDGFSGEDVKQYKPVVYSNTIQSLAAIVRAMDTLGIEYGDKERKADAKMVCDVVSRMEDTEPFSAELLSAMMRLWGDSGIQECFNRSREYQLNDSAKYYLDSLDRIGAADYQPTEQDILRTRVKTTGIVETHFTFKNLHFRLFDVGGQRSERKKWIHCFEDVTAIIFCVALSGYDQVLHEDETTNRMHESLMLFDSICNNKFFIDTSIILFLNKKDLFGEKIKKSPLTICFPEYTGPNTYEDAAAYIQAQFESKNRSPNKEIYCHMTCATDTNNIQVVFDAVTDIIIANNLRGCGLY"}, "source": "PubChem BioAssay AID1423", "about": "(NMMLSC, 2008)", "note": "Only a part is listed here, and it is no random draw. Calls of active or inactive are those of the source. No stated cut-off is given here; in the data, active means response below about 60% or above about 140%; inactive means in between.", "data": [{"biological_target": "Guanine nucleotide-binding protein G(o) subunit alpha (Homo sapiens) (UniProt P09471)", "experiment": "RGS8-Galphao binding modulators, primary screen, biochemical, multiplexed bead flow cytometry (AID 1423);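 further: Galphao activated as the GDP aluminium fluoride complex binding bead-coupled RGS8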", "conditions": "at 10 µM, actives lie on both sides", "values": [{"smiles": "Cc1ccc(OCC(C)C)c(CN(CCCl)CCCl)c1", "response (percent of control binding)": "inactive: 104%"}, {"smiles": "COc1ccc(NC2CCN(CCc3ccccc3)CC2)c(OC)c1", "response (percent of control binding)": "inactive: 100%"}, {"smiles": "CCOc1ccc(C)cc1CN(CCCl)CCCl", "response (percent of control binding)": "inactive: 102%"}, {"smiles": "CCOC(=O)N1CCC(Nc2ccc(OC)cc2)CC1", "response (percent of control binding)": "inactive: 102%"}, {"smiles": "O=C(OC1CN2CCC1CC2)C1c2ccccc2Oc2ccccc21", "note": "(centres undefined)", "response (percent of control binding)": "inactive: 95.7%"}, {"smiles": "N#CC1(Nc2ccccc2)CCN(Cc2ccccc2)CC1", "response (percent of control binding)": "inactive: 106%"}, {"smiles": "O=C(NCC1(N2CCOCC2)CCCCC1)c1cc2ccccc2o1", "response (percent of control binding)": "inactive: 137%"}, {"smiles": "COc1ccc(C(=O)NCC2(N3CCCCC3)CCCCC2)c(OC)c1OC", "response (percent of control binding)": "inactive: 102%"}, {"smiles": "COc1ccc(CN(CCCl)CCCl)cc1Cl", "response (percent of control binding)": "inactive: 99.9%"}, {"smiles": "CN(C)c1cccc(C(=O)NCC2(N3CCCCC3)CCCCC2)c1", "response (percent of control binding)": "inactive: 96.1%"}, {"smiles": "CC(C)c1ccc(NC2CCN(C(=O)OC(C)(C)C)CC2)cc1", "response (percent of control binding)": "inactive: 104%"}, {"smiles": "CN1CCN(CCOC(=O)C(O)(c2ccccc2)c2ccccc2)CC1", "response (percent of control binding)": "inactive: 101%"}, {"smiles": "COc1ccc(NC2CCN(C(=O)OC(C)(C)C)CC2)cc1", "response (percent of control binding)": "inactive: 101%"}, {"smiles": "O=C(NCC1(N2CCOCC2)CCCCC1)c1cc(=O)[nH]c2ccccc12", "response (percent of control binding)": "inactive: 101%"}, {"smiles": "O=C(NCC1(N2CCCCC2)CCCCC1)c1cccc([N+](=O)[O-])c1", "response (percent of control binding)": "inactive: 100%"}, {"smiles": "N#CC1(Nc2ccccc2)CCN(CCc2ccccc2)CC1", "response (percent of control binding)": "inactive: 102%"}, {"smiles": "c1ccc(CN2CCC(Nc3ccccc3)CC2)cc1", "response (percent of control binding)": "inactive: 98.3%"}, {"smiles": "N#Cc1ccc(C(=O)NCC2(N3CCCCC3)CCCCC2)cc1", "response (percent of control binding)": "inactive: 104%"}, {"smiles": "O=C(OC1CN2CCC1CC2)C1c2ccccc2C=Cc2ccccc21", "note": "(centres undefined)", "response (percent of control binding)": "inactive: 96.8%"}, {"smiles": "N/C(=N\\O)c1c(N)no[n+]1[O-]", "response (percent of control binding)": "inactive: 96.5%"}, {"smiles": "COc1ccc(C(=O)NCC2(N3CCOCC3)CCCCC2)cc1OC", "response (percent of control binding)": "inactive: 101%"}, {"smiles": "CCCOc1ccc(C)cc1CN(CCCl)CCCl", "response (percent of control binding)": "inactive: 94.5%"}, {"smiles": "CCC(CO)(C(=O)OC1CN2CCC1CC2)c1ccccc1", "note": "(centres undefined)", "response (percent of control binding)": "inactive: 98.1%"}, {"smiles": "COc1cc(OC)cc(C(=O)NCC2(N3CCOCC3)CCCCC2)c1", "response (percent of control binding)": "inactive: 99.3%"}, {"smiles": "CC(C)(C)OC(=O)N1CCC(Nc2ccccc2)CC1", "response (percent of control binding)": "inactive: 100%"}, {"smiles": "CCOc1ncccc1C(=O)NCC1(N2CCOCC2)CCCCC1", "response (percent of control binding)": "inactive: 122%"}, {"smiles": "CN(C)c1ccc(C(=O)NCC2(N3CCCCC3)CCCCC2)cc1", "response (percent of control binding)": "inactive: 94.9%"}, {"smiles": "CCN1CCC(Nc2cccc(F)c2)CC1", "response (percent of control binding)": "inactive: 100%"}, {"smiles": "Fc1ccccc1NC1CCN(Cc2ccccc2)CC1", "response (percent of control binding)": "inactive: 96.3%"}]}]}
